Source: article PMC4730229, “Benzobisthiazoles Represent a Novel Scaffold for Kinase Inhibitors of CLK Family Members” (Biochemistry, 2015)

Legend:
CLK3 = molecular target: T1, CLK3 (Homo sapiens, UniProt P49761); test: Kinase inhibition assay, IC50; format: biochemical
T1 construct: The catalytic domains of CLK1, CLK2, CLK3, CLK2K193A, and CLK2K193A/D290A were tagged with GST; GST (N); made in house
Method: (§1) A small molecule inhibitor library consisting of 1600 compounds was obtained from LIFE Chemicals (Kiev, Ukraine). These compounds are part of the CUTE kinase collection that was predicted by in silico profiling against a panel of targets and includes potent kinase inhibitor compounds.[16] Compounds were dissolved as 10 mM stocks in DMSO and stored at room temperature, in the presence of 5% humidity and 5% oxygen in the dark in a Roylan Storage Pod system. Compounds were dispensed into white 384-well plates using the Labcyte Echo520 instrument at a final concentration of 10 μM. Next, 5 μL of 144.92 nM purified GST-CLK2cd in kinase assay buffer A was added to the compounds, incubated for 10 min at room temperature prior to addition of 5 μL of a 2 μM ATP/10 μM S6K peptide mixture, and incubated again for 60 min at room temperature. Subsequently, 10 μL of Kinase-Glo was added to the wells, and the plates were analyzed after 10 min on the Envision II multilabel plate reader (PerkinElmer). […] The percentage of inhibition is equal to 100 – [(total ATP before assay – remaining ATP in assay with compound)/(total ATP before assay – remaining ATP in assay with DMSO) × 100]. […] NR9 was obtained from Enzo Life Sciences (catalog no. ALX-270-463-M001). […]

Dyrk1A = molecular target: T2, Dyrk1A (Homo sapiens, UniProt Q13627); test: Kinase inhibition assay, IC50; format: biochemical
T2 construct: purchased Invitrogen PV3785
Method: as §1

For `CCN1/C(=C/C(C)=O)Sc2ccc(OC)cc21` [TG003, reference compound], the IC50 (CLK3) was over 3000 nM and the IC50 (Dyrk1A) was 204 nM.
